# Key:
# [1] = tested on: AR localization in T878A expressing LNCaP line; assay: Nuclear/cytoplasmic fractionation of exogenous AR, T878A line; assay type: cell-based; conditions: 10 μM, 24 h
# [2] = tested on: LNCaP clone #1 (AR-F877L-bearing) tumors; conditions: clone #1 xenograft mice; 30 mg/kg daily
# [3] = tested on: F877L/T878A mutant AR (KLK3, NKX3-1 expression); assay: qPCR of AR target genes in LNCaP engineered to express F877L/T878A AR; assay type: cell-based; conditions: 10% FCS; 10 μM; FIG. 5a, FIG. 15
smiles,measurement,setting,value
"CNC(=O)c1ccc(N2C(=S)N(c3ccc(C#N)c(C(F)(F)F)c3)C(=O)C2(C)C)cc1F [MDV3100, 4-{3-[4-cyano-3-(trifluoromethyl)phenyl]-5,5-dimethyl-4-oxo-2-sulfanylideneimidazolidin-1-yl}-2-fluoro-N-methylbenzamide]",nuclear localization of AR,[1],significantly impaired
same,body weight during treatment period,[2],No significant body weight loss
same,AR pathway activity in presence of compound,[3],significant rescue of AR pathway activity

# From patent publication US10011874B2, “Androgen receptor mutation” (NOVARTIS AG, priority 2013, dated 2018)
